Key:
[1] = Critical micelle concentration (DPH fluorescence); assay type: physicochemical; settings: PAs with FAM and Tamra moved out of FRET overlap range
Method: CMC was performed as described in Ref. B67; incorporated by reference in its entirety. A range of PA concentrations (from 512 μM to 0.01 μM in half increments) were prepared in a 1 μM DPH aqueous solution and equilibrated for 1 hour at room temperature. Solutions were plated in triplicates in a black 96-well plate and their fluorescent intensity was measured using Tecan Infinite M200 PRO plate reader (Mannedorf, Switzerland). Data were fit with two trend lines for low and high intensity measurements and CMC was calculated as the inflection point where the two trend lines meet (Ref. B68; incorporated by reference in its entirety).

HeLa cells [2] = test: Intracellular accumulation of PAs under continuous incubation (confocal); assay type: cell-based; settings: 10 μM PA, 16 and 24 hours
Method: HeLa cells were maintained in DMEM (Invitrogen) supplemented with 10% FBS, 100 U ml^−1 penicillin/streptomycin, 2 mM L-glutamine, and 0.1 mM MEM nonessential amino acids. Cells were grown at 37° C., humidified atmosphere and 5% CO2. Cells were allowed to attach on the surfaces overnight (12 h).
HeLa cells were incubated with 2.5 μM PAs and 0.1 μM transferrin (Alexa Fluor 647 labeled, Thermo Fisher Science) for 1 hour in Advanced DMEM (Invitrogen) supplemented with 1% FBS. The media was then removed and cells were washed and either fixed immediately with 4% paraformaldehyde in PBS for 10 minutes at room temperature, or replaced with new peptide-free media and cells were allowed to incubate for another 1, 2, or 5 hours before being fixed. The fixed cells were then washed and left in PBS before being imaged. For accumulation experiments, 10 μM PAs were incubated individually and left on the cells for 24 h and the confocal images were taken in different time periods from live cells.
Images were taken by Marianas Yokogawa type spinning disk (inverted confocal microscope). The following lasers were used: (1) green: λexc=488 nm, filter: green; (2) Red: λexc=565 nm, filter: red; (3) Transferrin: λexc=640 nm, filter: far red; (4) FRET channel: λexc=488 nm, filter: red. […] Images were analyzed by ImageJ software. […]

HeLa cells [3] = test: Extracellular vesicle analysis (Nanosight NTA, red filter); assay type: cell-based
Method: HeLa cells were grown in the T25 with 10% FBS. Cells were washed twice with PBS and incubated with (1) 10 μM diC16-GGG-p53(14-29), (2) 10 μM diC16-VC-PABA-p53(14-29), and (3) media alone for 1 hour in Advanced DMEM supplemented with 1% FBS. This media was then removed and cells were washed twice with PBS. New 10% FBS media was then added on the cells. Following incubation for 6 and 24 hours, 1 mL of media was collected from each of the samples and analyzed using a Nanosight NS300 flow cell (Nanosight, UK) following the manufacturer protocol. Nanoscale particles (10-1000 nm) were analyzed using the NTA software for size distribution and total number of particles per frame. Particles were also tracked using red filters to detect red-laden particles. The ratio of detected red particles per mL to total particle per mL for each sample was then calculated.
To measure extracellular vesicles, HeLa cells were incubated for 1 hour followed by washing and replacement with PA-free media. […] Vesicles within the media were analyzed using a Nanosight N300 with fluorescence filters and nanoparticle tracking analysis (NTA) software was used to determine the number of total and red particles per frame over a threshold of a constant intensity (FIG. 8). […] The number of peptides within each vesicle could not be determined using this technique. […]

Row | Substance | Critical micelle concentration (CMC) [1] [µM] | Intracellular accumulation of PA (HeLa cells [2]) | Number of red (p53(14-29)-containing) extracellular vesicles relative to cells incubated with diC16-VC-PABA-p53(14-29) (HeLa cells [3]; 10 μM PA for 1 hour, media analysed) [×] | Number of red extracellular particles in media compared to diC16-GGG-p53(14-29) (HeLa cells [3]; media collected at 6 hours following incubation)
1 | diC16-GGG-p53(14-29): non-cleavable control p53(14-29) peptide amphiphile: diC16 hydrophobic tail, GGG linker, FAM and Tamra fluorophores | 5.8 | did not intracellularly accumulate over time | 4.28 | –
2 | diC16-VC-PABA-p53(14-29): cleavable p53(14-29) peptide amphiphile: diC16 hydrophobic tail, VC-PABA catB-cleavable linker, FAM and Tamra fluorophores | 4.7 | far greater than non-cleavable control PAs | – | less

From US20180066031A1, “ENZYMATICALLY-CLEAVABLE PEPTIDE AMPHIPHILES” (The University of Chicago, priority 2016, published 2018)
